Patent publication US9134328B2, “Methods of using benzothiazole derivative compounds and compositions” (University of Pittsburgh—Of the Commonwealth System of …, priority 2003, dated 2015)

Experiment: In vivo mouse brain entry studies
Design: species or system female Swiss-Webster mice
Protocol: Experiments to assess brain penetration of 2-(3′-^125I-iodo-4′-amino-phenyl)-benzothiazol-6-ol (Compound A), 2-(3-[^18F]-fluoro-4-methylamino-phenyl)-benzothiazol-6-ol (Compound 13), and 2-[4-(3-^18F-fluoro-propylamino)-phenyl]benzothiazol-6-ol (Compound C) were performed in young, wild type mice that had no amyloid deposits in their brain. This study reflects brain entry and clearance from normal brain tissue. […] A measure of non-specific binding clearance rate is provided by the ratio of the 2 minutes-to-30 minutes (% ID-kg)/g values.
The mice were injected in a lateral tail vein with 0.37-3.7 MBq (10-100 μCi) of a high specific activity (˜2.0/μmol) Compound A, Compound B or Compound C contained in ≦0.10 mL of a solution of 95% isotonic saline and 5% ethanol. The mice were anesthetized and killed by cardiac excision following cardiac puncture to obtain arterial blood samples at 2 minutes or 30 minutes post-injection. The mouse brains were rapidly excised and divided into the cerebellum and the remaining whole brain (including brain stem) fractions. The brain samples were counted in a gamma well-counter, and the counts were decay-corrected to the time of injection relative to ^125I or ^18F standards prepared from the injection solution to determine the percent injected dose (% ID) in the samples. The brain samples were weighed to determine the percent injected dose per gram tissue (% ID/g), and this quantity was multiplied by the whole body weight (in kg) to determine the body-weight normalized radioactivity concentration [(% ID-kg)/g] of each tissue sample. […] The radioactivity concentrations (% ID-kg/g) at 2 minutes and 30 minutes and the 2 minutes-to-30 minutes ratios are presented in Table I below.

2 min./30 min. Ratio: 16
Radioactivity Conc. at 2 min.: 0.141 % ID-kg/g
Radioactivity Conc. at 30 min.: 0.009 % ID-kg/g
Compound: Nc1ccc(-c2nc3ccc(O)cc3s2)cc1[125I] [Compound A, 2-(3′-^125I-iodo-4′-amino-phenyl)-benzothiazol-6-ol]
brain entry and clearance (in words): relatively high brain entry at early time points and fast clearance at later time points
